A word on the inhibition: it is the drop in the measured response relative to a control, in per cent.

In assay [1] the target is norepinephrine transporter (NET) (Homo sapiens (Human), UniProt P23975). Nature of the assay: biochemical. The assay is classed as binding. Particulars: compound at 10 μM, in duplicate; membranes from cells expressing the transporter; read-out: Norepinephrine Transporter (NET) percent inhibition.
The target of a further assay is serotonin 5HT2A receptor (Homo sapiens (Human), UniProt P28223). Nature of the assay: biochemical. As to conditions: compound at 10 μM, in duplicate; ligand binding to cell membranes; read-out: Serotonin 5HT2A percent inhibition.

Turning to `COc1cc2nc3c(c(N[C@@H]4CCCCNC4)c2cc1OC)CCC3` [drawing 597], the inhibition at 10 µM in assay [1] worked out at 65%; at serotonin 5HT2A receptor it was 30%.

Turning to `CCNc1c2c(nc3cc(OCCCN4CCCC4)c(OC)cc13)CCC2` [drawing 591], the figures for the inhibition at 10 µM (in assay [1]; on serotonin 5HT2A receptor) were 84% and 101%, respectively.

For `COc1cc2nc3c(c(NCC4CNC4)c2cc1OC)CCC3` [drawing 593], the inhibition at 10 µM in assay [1] worked out at 57%; at serotonin 5HT2A receptor, 54%.

Consider `COc1cc2nc3c(c(N[C@@H]4CCCNC4)c2cc1OC)CCC3` [drawing 594], for which the values for the inhibition at 10 µM (in assay [1]; at serotonin 5HT2A receptor) were 72% and 40%, respectively.

For the compound `COc1cc2nc3c(c(NC4CCNCC4)c2cc1OC)CCC3` [drawing 595], the inhibition at 10 µM in assay [1] turned out to be 57%; on serotonin 5HT2A receptor, 38%.

In the case of `COc1cc2nc3c(c(N[C@H]4CNC[C@@H](C)C4)c2cc1OC)CCC3` [drawing 596], the inhibition at 10 µM worked out at 33% in assay [1] and 27% at serotonin 5HT2A receptor.

For the compound `COc1cc2c(NC(C)C)c3c(nc2cc1OCCCN1CCCC1)CCC3` [drawing 590], the inhibition at 10 µM in assay [1] worked out at 84%; on serotonin 5HT2A receptor it was 98%.

Values taken from patent US11661410B2 (GLOBAL BLOOD THERAPEUTICS, INC., priority 2017, dated 2023).
